{"source": "patent US10912759B2", "about": "(priority 2018, dated 2021)", "origin": "cited, not measured here", "details": "aqueous vehicles; cited from earlier work", "data": [{"substance": "vitamin E d-alpha-tocopherol polyethylene glycol 1000 succinate [TPGS]", "values": [{"measurement": "concentration at which stable micelles form", "result": "≥ 0.02", "unit": "wt %"}]}]}
